Experimental findings from patent US10912763B2 (priority 2010, dated 2021) are described below.

Like-named read-outs stand apart in the source and are kept apart here. Where only a bound is given, the exact number is not on record here.

Data set [1] relates to acute post-operative pain following orthopedic surgery (bunionectomy).
Data set [2] in a line: Storage stability of tablets made by fluid bed granulation. Conditions: tablet, dosage 50 μg, 6 months.

In the case of `CN1CC[C@]23c4c5ccc(O)c4O[C@H]2[C@@H](O)C=C[C@H]3[C@H]1C5`, the deaths in data set [1] (60 mg) and in data set [1] (60 mg controlled-release) was 0 throughout.
“1,1-(3-methylamino-3-phenylpentamethylene)-6-fluoro-1,3,4,9-tetrahydropyrano[3,4-b]indole (trans)”: the “Content of decomposition product 6′-fluoro-4-phenyl-4′,9′-dihydro-3′H-spiro[cyclohex-3-ene-1,1′-pyrano[3,4-b]indole]” value is less than 0.1% in data set [2] (25° C. and 60% rh); less than 0.1% in data set [2] (40° C. and 75% RH).
